Assay results from BindingDB's records for PubMed 8386236 (Whitby Research, 1993).

Chains of the proteins cited; added tags and fusions are not shown.
UniProt P20288, whole entry: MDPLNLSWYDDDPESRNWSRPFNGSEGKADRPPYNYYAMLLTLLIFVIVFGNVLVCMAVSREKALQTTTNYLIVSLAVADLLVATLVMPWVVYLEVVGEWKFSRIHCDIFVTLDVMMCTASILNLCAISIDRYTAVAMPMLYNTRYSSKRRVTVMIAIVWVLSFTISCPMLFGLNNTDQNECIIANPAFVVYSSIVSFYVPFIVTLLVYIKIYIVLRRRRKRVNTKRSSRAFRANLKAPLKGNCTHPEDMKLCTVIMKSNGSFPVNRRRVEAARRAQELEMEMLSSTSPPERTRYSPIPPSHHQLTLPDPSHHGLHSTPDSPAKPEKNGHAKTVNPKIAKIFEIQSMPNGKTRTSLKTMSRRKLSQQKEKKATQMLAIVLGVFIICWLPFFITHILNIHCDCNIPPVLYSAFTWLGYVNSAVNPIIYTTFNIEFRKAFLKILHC

Target: D(2) dopamine receptor (Bos taurus, UniProt P20288)

Ki: > 10 µM
SMILES: CC(C)(C)[C@]1(O)CCN2C[C@H]3c4ccccc4CCc4cccc(c43)[C@@H]2C1
